This excerpt belongs to a sample that is enriched for hits.
GIV Gai3 FP: inhibitors of GIV GBA-motif binding to rat Galpha-i3; P08753; Galpha-i3/FITC-GIV peptide fluorescence polarization, 90 min; stronger effect = lower value; scaled: aluminum fluoride 0%, vehicle 100%; percent of control (FP), % (test concentration not listed); 210,000 tested, 0.42% active; AID 1224905;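 active = replicate mean at 85% of control or lower, very high polarization wells dropped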;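 note: wells of about 15 µL received 100 nL stock; the first replicate is given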
GIV-Gai FP conf: inhibitors of GIV peptide binding to Galpha-i3, confirmation, biochemical, fluorescence polarization, FITC-GIV peptide, rat Galphai3. AID 1259350, 2017. shares compounds with GIV Gai3 FP. fluorescence polarization, mP at 100 µM. 580 tested, 38% active. stronger effect = lower value;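 active = inhibition score of 15 or more, meaning 100 minus mean polarization as percent of control over three replicates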
GIV Gai AS conf: inhibitors of GIV binding to Galpha-i3, confirmation, orthogonal assay for GIV-Galpha-i inhibitor project, biochemical, AlphaScreen, His-GIV, GST-Galphai3. shares compounds with GIV Gai3 FP. AlphaScreen counts at 100 µM. 580 tested, 39% active. AID 1259351, 2017. purified proteins, 90 min; stronger effect = lower value;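 active = inhibition score at or above a set limit, where the score is 100 minus the three-replicate mean percent of control signal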
Numbers stand for hits; 0 = inactive.

SMILES	GIV Gai3 FP	others
CCOC(=O)c1nc2ccccc2nc1NCc1ccco1	0
CCOC(=O)c1nn(-c2ccccc2)c(=O)cc1OCC(=O)NCc1ccc2c(c1)OCO2	0
CCOC(=O)c1nc2cc(C)c(C)cc2nc1NCc1ccc2c(c1)OCO2	80	GIV-Gai FP conf=0;GIV Gai AS conf=0
COc1ccc(C(=O)N2CCN(c3ncnc4c3nnn4-c3ccc(F)cc3)CC2)cc1OC	0
O=C(O)C1=CC(=C(c2ccc(O)c(C(=O)O)c2)c2ccc(O)c(C(=O)O)c2)C=CC1=O	-19	GIV-Gai FP conf=17;GIV Gai AS conf=2586
O=C(Nc1ccc(O)c(C(=O)O)c1)c1ccc(Br)cc1	0
Nc1ccc(O)c(C(=O)O)c1	0
Cc1ccc(N=C(NOCc2ccc(Cl)cc2)c2nonc2N)cc1	0
Cc1ccc2ncc(C(=O)Nc3ccccc3)c(=O)n2c1	0
COc1ccc(/C(N)=N/O)cc1OC1CCCC1	0
S=C1NCc2ccsc2S1	49	GIV-Gai FP conf=51;GIV Gai AS conf=31760
Cn1c(=O)c(=O)n(C)c2cc(S(=O)(=O)C3CCCCC3)c(NC(=O)c3ccccc3)cc21	0
CC(=O)n1cc(/C=C2\N=C(c3cccc4ccccc34)OC2=O)c2cc(Br)ccc21	0
CC(=O)n1c(/C=C2/N=C(c3cccs3)OC2=O)cc2ccccc21	0	GIV-Gai FP conf=0;GIV Gai AS conf=0
COc1ccc(C2=N/C(=C/c3cc4ccccc4n3C(C)=O)C(=O)O2)cc1Br	0
O=C(NCCc1c[nH]c2ccccc12)c1cc(S(=O)(=O)N2CCSCC2)ccc1Cl	0
Cc1[nH]nc2oc(=O)c(CC(=O)O)c(C)c12	84	GIV-Gai FP conf=59;GIV Gai AS conf=0
Cc1cc2oc(=O)c(CC(=O)O)c(C)c2c2occ(-c3ccc(F)cc3)c12	0
Cc1[nH]nc2oc(=O)c(Cc3c(F)cccc3Cl)c(C)c12	0
CCN1CCCC1CNS(=O)(=O)c1ccc(-c2cc(C(F)(F)F)no2)s1 (configuration not stated)	0
CCOC(=O)c1cccc(NC(=O)c2sc3nc[nH]c(=O)c3c2C)c1	0	GIV-Gai FP conf=0;GIV Gai AS conf=0
Cc1ccc(NC(=O)c2sc3nc[nH]c(=O)c3c2C)cc1Cl	0
CCOC(=O)c1sc2nc[nH]c(=O)c2c1C	0
CCN(CC)CCCN	0
CC1=C(C(=O)OCc2ccccc2)C(c2ccc(Br)s2)NC(=O)N1C (configuration not stated)	0
SMILES	GIV Gai3 FP	others
CCOC(=O)Cn1nc2c(-c3nc(-c4ccc(Cl)cc4)no3)cccn2c1=O	0
O=c1cc(Cn2nc3c(-c4nc(-c5ccccc5)no4)cccn3c2=O)nc2ccccn12	0	GIV-Gai FP conf=42;GIV Gai AS conf=0
Cc1ccc(-c2noc(-c3cccn4c(=O)c5ccccc5nc34)n2)cc1	0
Cn1c(=NC(=O)c2ccc(S(C)(=O)=O)cc2)sc2ccccc21	0
O=C(CC1(C(F)(F)F)NCCN1)c1ccco1	0
COc1cc(C(=O)N2CCN(c3ccc(NCc4ccccc4)nn3)CC2)cc(OC)c1OC	0
Clc1cccc2c(N3CCCCCC3)cnnc12	83	GIV-Gai FP conf=0;GIV Gai AS conf=0
COCCNC(=O)C1CCCN(c2cnnc3c(Cl)cccc23)C1 (configuration not stated)	0
CC1CC(C)CN(c2cnnc3c(Cl)cccc23)C1 (configuration not stated)	0
Cc1ccc(C)c2[nH]c(=O)c(C(c3nnnn3C3CCCC3)N3CCCC3)cc12 (configuration not stated)	0
O=C(Oc1ccc(NC2=NS(=O)(=O)c3ccccc32)cc1)c1ccc(Br)cc1	0
N#Cc1ccc(NC2=NS(=O)(=O)c3ccccc32)cc1	0	GIV-Gai FP conf=0;GIV Gai AS conf=0
CC(=O)c1ccc(NC2=NS(=O)(=O)c3ccccc32)cc1	0
O=C(CCc1c[nH]c2ccccc12)Nn1c(SCc2cc(=O)n3cc(Cl)ccc3n2)nc2ccccc2c1=O	0
COc1cccc(CNC(=O)C2CCCN(c3nnc(-n4c(C)ccc4C)s3)C2)c1 (configuration not stated)	0
O=C(NCc1cccc(Br)c1)C1CCCN(c2nnc(N3CCCC3=O)s2)C1 (configuration not stated)	0
COc1cccc(CNC(=O)C2CCCN2c2nnc(N3CCCCC3=O)s2)c1 (configuration not stated)	0	GIV-Gai FP conf=0;GIV Gai AS conf=0
CCCCC(=O)N1CCN(c2cc(C)c(C(=O)CC)cc2F)CC1	0
COc1cccc(/C=N/N(CCO)C2=NS(=O)(=O)c3ccccc32)c1	0
Cc1cc(N=Cc2c(O)ccc3ccccc23)no1	-9.8	GIV-Gai FP conf=13;GIV Gai AS conf=20466
Cc1ncc(CO)c(/C=N/N=C/c2c(O)ccc3ccccc23)c1O	0
Cn1c(/N=C/c2c(O)ccc3ccccc23)nc2ccc(Br)cc21	23	GIV-Gai FP conf=25;GIV Gai AS conf=14331
Oc1ccc2ccccc2c1/C=N/c1nccs1	0
COc1cccc(/C=N/c2nc3ccccc3n2C)c1O	0
Cc1ccc(O)c(C=Nc2cc(C)on2)c1	0
SMILES	GIV Gai3 FP	others
CCOc1cc(C(=O)Nc2ccc(Cl)c(-c3nc4cc(C)c(C)cc4o3)c2)cc(OCC)c1OCC	0
Cc1ccc(CNC(=O)C(C)Sc2nc3nc(C)cc(C)n3n2)cc1 (configuration not stated)	0
CCOC(=O)C1=C(C)N(CCOC)C(=O)/C1=C\c1ccc(N(C)C)cc1	64	GIV-Gai FP conf=0;GIV Gai AS conf=19702
CCN1C(=O)C(=Cc2ccc(N(C)C)cc2)C(=O)N(CC)C1=S	0
CCOC(=O)c1ccc(N(C)C)cc1	0
CN(Cc1ccco1)C(=O)c1noc2c1CSc1ccccc1-2	0
CC(=O)NC1(c2ccccc2)CCN(CC(=O)Nc2c(C)n[nH]c2C)CC1	0
COc1cc(CNC2CC2)ccc1OCc1ccc2c(c1)n(C)c(=O)n2C	0
Cc1ccc(-c2csc(-c3c(N)c(C(=O)c4ccc5c(c4)OCO5)n4ccccc34)n2)cc1C	0
Nc1c(-c2nc(-c3ccc4c(c3)OCO4)cs2)c2ccccn2c1C(=O)c1ccccc1	0
Nc1c(-c2nc(-c3ccc(F)cc3)cs2)c2ccccn2c1C(=O)c1ccc2c(c1)OCO2	75	GIV-Gai FP conf=0;GIV Gai AS conf=0
O=C(O)Cc1nonc1NCNc1nonc1CC(=O)O	0
CCCC(=O)N(Cc1nc2nc(C)cc(C)n2n1)c1ccccc1	0
Cc1cc(C)n2nc(CN(C(=O)CC(C)C)c3ccccc3)nc2n1	0	GIV-Gai FP conf=0;GIV Gai AS conf=0
Cc1cc(C)n2nc(CN(C(=O)CC(C)C)c3ccccc3Cl)nc2n1	0
CS(=O)(=O)Nc1cc(C(=O)N2CCCN(c3ncccn3)CC2)ccc1N1CCNCC1	0
COc1ccc(C(=O)Nc2ccccc2SCc2cc(=O)c3cccc(C)c3[nH]2)cc1	0
CCC(CC)C(=O)Nc1ccccc1SCc1cc(=O)c2cccc(C)c2[nH]1	0
COc1ccccc1C(=O)Nc1ccccc1SCc1cc(=O)c2ccccc2[nH]1	53	GIV-Gai FP conf=53;GIV Gai AS conf=0
O=C(Nc1nnc2n1CCCS2)C1CCCC1	0
CC(=O)N/C(=C\c1cccs1)C(=O)O	0
CC(=O)NC1=NC(=O)/C(=C\c2cccs2)N1C	80	GIV-Gai FP conf=45;GIV Gai AS conf=0
NC1=NC(=O)/C(=C/c2cccs2)S1	0
Cc1cccc(-c2nc3c4ccccc4n(CC(=O)Nc4ccccc4Cl)c(=O)n3n2)c1	0
O=C(COc1ccc(-c2nc(-c3ccccc3)no2)cc1)NC1CCCC1	0

High-throughput results from PubChem.
